# In US20220401536A1 (published 2022):
# Target: Wt DD1α (full length DD1α expressed on the cell surface) (human, UniProt Q9H7M9)
# Test: latex bead binding assay on transfected 293T cells
binder,measurement,value
"Recombinant human PD-1-Ig (extracellular region of PD-1 fused with the immunoglobulin G Fc segment) (Fc fusion, domain: Fc segment; also called Ig-fused PD-1; recombinant PD-1 protein; not shown: immunoglobulin G Fc segment) LDSPDRPWNPPTFSPALLVVTEGDNATFTCSFSNTSESFVLNWYRMSPSNQTDKLAAFPEDRSQPGQDCRFRVTQLPNGRDFHMSVVRARRNDSGTYLCGAISLAPKAQIKESLRAELRVTERRAEVPTAHPSPSPRPAGQFQTLV",binding result,binds
